Data taken from article PMC9781217, “Discovery of Novel and Selective G-Protein Coupled Receptor 120 (GPR120) Agonists for the Treatment of Type 2 Diabetes Mellitus” (Molecules, 2022).

By UniProt entry, the sequences of proteins in these tests, tags left out.
UniProt Q76JU9, whole entry: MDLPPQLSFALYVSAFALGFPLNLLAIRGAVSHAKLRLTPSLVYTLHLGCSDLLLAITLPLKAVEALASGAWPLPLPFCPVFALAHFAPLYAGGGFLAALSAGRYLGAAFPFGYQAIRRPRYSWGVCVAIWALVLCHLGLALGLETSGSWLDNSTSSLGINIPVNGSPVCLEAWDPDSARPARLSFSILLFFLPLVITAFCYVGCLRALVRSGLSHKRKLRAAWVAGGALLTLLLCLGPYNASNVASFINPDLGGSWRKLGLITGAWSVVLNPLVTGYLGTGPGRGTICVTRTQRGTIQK

How the values were obtained:
mouse GPR120 (mGPR120) = target: T1, mouse GPR120 (mGPR120) (Mus musculus, UniProt Q7TMA4); assay: Calcium flux assay in CHO cells expressing mouse GPR120
T1 sequence (Q7TMA4 1-361): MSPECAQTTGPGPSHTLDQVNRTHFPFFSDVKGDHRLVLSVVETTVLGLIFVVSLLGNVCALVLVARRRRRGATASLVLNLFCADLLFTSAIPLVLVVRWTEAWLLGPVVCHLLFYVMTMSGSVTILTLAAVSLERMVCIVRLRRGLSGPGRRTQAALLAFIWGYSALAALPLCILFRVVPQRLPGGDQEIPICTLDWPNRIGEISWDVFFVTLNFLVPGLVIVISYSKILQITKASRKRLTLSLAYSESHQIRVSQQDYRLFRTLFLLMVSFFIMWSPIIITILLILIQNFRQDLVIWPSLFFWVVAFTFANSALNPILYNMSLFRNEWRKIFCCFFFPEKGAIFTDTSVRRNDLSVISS

mouse GPR40 (mGPR40) = mouse GPR40 (mGPR40) (Mus musculus, UniProt Q76JU9); assay: Calcium flux assay in CHO cells expressing mouse GPR40

Compound: Cc1ccc(-c2ccc(F)cc2COc2ccc(CCC(=O)O)cc2)cc1 [TUG-891, reference compound]
- EC50 (mouse GPR120 (mGPR120)): 0.156 µM
- Hill slope (mouse GPR120 (mGPR120)): 0.8310
- EC50 (mouse GPR40 (mGPR40)): 5.9 µM
